Earlier results, collected in publication PMC9510668 (Frontiers in Pharmacology, 2022).

Conditions: ref [1]; cited from earlier work

CC(=O)N1CCN(c2ccc(OCC3COC(Cn4ccnc4)(c4ccc(Cl)cc4Cl)O3)cc2)CC1 (stereo not shown) [ketoconazole]
Peff, human permeability: 1.24 ?10^-5 cm·s^-1
